Experimental data from patent US8530468B2 (Cancer Research Technology Limited, priority 2008, dated 2013).

Molecular target: T1, CHK1 (Homo sapiens, UniProt O14757)
T1 sequence (O14757 1-476): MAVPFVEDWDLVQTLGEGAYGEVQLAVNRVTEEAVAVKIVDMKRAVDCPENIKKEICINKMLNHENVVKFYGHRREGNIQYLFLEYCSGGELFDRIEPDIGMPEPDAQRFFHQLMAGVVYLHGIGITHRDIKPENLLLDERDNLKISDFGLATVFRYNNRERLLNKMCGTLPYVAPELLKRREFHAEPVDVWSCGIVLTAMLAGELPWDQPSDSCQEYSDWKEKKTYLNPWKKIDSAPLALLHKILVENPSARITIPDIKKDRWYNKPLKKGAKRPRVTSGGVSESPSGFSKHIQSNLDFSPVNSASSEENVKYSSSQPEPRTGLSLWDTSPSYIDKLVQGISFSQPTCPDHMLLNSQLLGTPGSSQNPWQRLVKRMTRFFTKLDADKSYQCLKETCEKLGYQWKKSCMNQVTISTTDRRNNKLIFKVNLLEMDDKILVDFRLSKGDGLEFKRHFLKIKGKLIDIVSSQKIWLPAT
Experiment: CHK1 kinase function inhibition (DELFIA assay, phosphorylation of CDC25C peptide)
Assay type: biochemical
Details: CHK1 kinase function inhibition IC50, CHK1 1 nM, ATP 30 μM, 30 minutes at room temperature

| SMILES | IC50 |
| --- | --- |
| N#Cc1cnc(Nc2cc3c(cn2)ncn3CC2CCNCC2)cn1 [BB-018, 5-(1-(piperidin-4-ylmethyl)-1H-imidazo[4,5-c]pyridin-6-ylamino)pyrazine-2-carbonitrile] | 1000 to 10000 nM |
| N#Cc1cnc(Nc2cc3ccccc3cn2)cn1 [AA-002] | 1000 to 10000 nM and 1800 nM |
| N#Cc1cnc(Nc2cc3cccc(Cl)c3cn2)cn1 [AA-004] | ≤ 1000 nM |
| N#Cc1ncc(Nc2cc3ccccc3cn2)nc1OC1CCCNC1 (stereo not shown) [AA-015] | ≤ 1000 nM |

Where “and” joins values, the source holds several entries; their conditions need not be identical. Equal values may be shown once.
